Patent US9750738B2, “Arylpiperazine opioid receptor antagonists” (RESEARCH TRIANGLE INSTITUTE, priority 2010, dated 2017)

Protein sequences, listed by entry. Tags and fused reporters are not part of them. Lines headed by an entry give the natural chain unless they say otherwise; changes in a name come on top.
UniProt P35372, whole entry: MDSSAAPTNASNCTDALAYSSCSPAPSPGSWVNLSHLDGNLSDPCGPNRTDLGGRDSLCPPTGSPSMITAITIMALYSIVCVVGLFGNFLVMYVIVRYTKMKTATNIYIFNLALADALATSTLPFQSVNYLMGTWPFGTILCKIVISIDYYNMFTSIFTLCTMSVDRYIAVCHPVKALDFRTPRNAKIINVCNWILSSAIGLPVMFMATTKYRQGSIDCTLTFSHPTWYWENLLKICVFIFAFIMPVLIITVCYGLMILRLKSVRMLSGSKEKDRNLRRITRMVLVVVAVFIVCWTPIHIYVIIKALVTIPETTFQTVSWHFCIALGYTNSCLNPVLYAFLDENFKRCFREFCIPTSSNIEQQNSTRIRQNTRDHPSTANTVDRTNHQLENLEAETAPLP
UniProt P41145: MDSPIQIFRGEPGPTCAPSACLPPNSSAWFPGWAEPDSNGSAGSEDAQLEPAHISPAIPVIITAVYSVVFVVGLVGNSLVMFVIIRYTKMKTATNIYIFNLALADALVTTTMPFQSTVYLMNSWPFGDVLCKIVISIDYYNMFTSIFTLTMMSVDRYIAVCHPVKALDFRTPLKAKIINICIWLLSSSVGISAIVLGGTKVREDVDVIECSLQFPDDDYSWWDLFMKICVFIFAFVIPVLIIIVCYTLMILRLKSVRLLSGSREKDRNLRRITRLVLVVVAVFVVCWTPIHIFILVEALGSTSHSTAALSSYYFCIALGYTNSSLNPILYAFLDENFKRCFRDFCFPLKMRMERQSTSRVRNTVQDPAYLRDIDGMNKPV

How the values were obtained:
[1] = biological target: T1, cloned human μ opioid receptor (Homo sapiens, UniProt P35372); experiment: Inhibition of DAMGO-stimulated [35S]GTPγS binding; assay type: biochemical; settings: antagonism of agonist DAMGO
T1 construct: expressed in transfected cells
From the text: Measures of opioid receptor antagonism and specificity were obtained by monitoring the ability of selected test compounds to inhibit stimulation of [^35S]GTPγS binding produced by the selective agonists (D-Ala^2,MePhe^4,Gly-ol^5)enkephalin (DAMGO, mu receptor) cyclo[D-Pen^2,D-Pen^5]enkephalin (DPDPE, delta) and 5,7,8-(-)-N-methyl-N-[7-(1-pyrrolidinyl)-1-oxaspiro[4,5]dec-8-yl]benzeneacetamide (U69,593, kappa) in cloned human receptors (Table 1).

[2] = biological target: T2, cloned human κ opioid receptor (Homo sapiens, UniProt P41145); experiment: Inhibition of U69,593-stimulated [35S]GTPγS binding; assay type: biochemical
T2 construct: expressed in transfected cells

SMILES: CC1CN(CCCc2ccccc2)CC(C)N1c1cccc(O)c1 (stereo not drawn) [Compound 5d, (Z)-3-(2,6-Dimethyl-4-(3-phenylpropyl)piperazin-1-yl)phenol]
- μ, DAMGO Ke [1]: 3 nM

SMILES: Oc1ccc2c3c1O[C@H]1c4[nH]c5c(c4C[C@@]4(O)[C@@H](C2)N(CC2CC2)CC[C@]314)C[C@@]1(O)[C@H]2Cc3ccc(O)c4c3[C@@]1(CCN2CC1CC1)[C@H]5O4 [norBNI, reference compound]
- κ, U69,593 ke ([2]; antagonism of agonist U69,593, [35S]GTPγS binding): 0.05 ± 0.02 nM
- δ/κ ([2]; ratio of Ke values, δ over κ): 580
